scFv variants of Ab-14 (heavy chain) against a SARS-CoV-2 spike peptide

Binding partner: SARS-CoV-2 spike HR2 peptide, sequence PDVDLGDISGINAS.

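The parent was found by panning a naive human phage display library on the peptide. The library (AAYL49) carries one to three amino acid substitutions per variant, with no insertions or deletions. The scFvs were displayed on barcoded MATa yeast, the peptide on MATalpha yeast. Pairs that bind mate more often; barcode pairs of the diploids are counted by sequencing. Read counts were normalised to the haploid input and turned into Kd by a linear fit to BCL2-family pairs of known affinity, for each replicate. Each pool was mated in three replicate cultures.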

The variants keep the light chain, the linker and the frameworks of Ab-14 (scFv order VH, three GGGGS repeats, VL).
VH: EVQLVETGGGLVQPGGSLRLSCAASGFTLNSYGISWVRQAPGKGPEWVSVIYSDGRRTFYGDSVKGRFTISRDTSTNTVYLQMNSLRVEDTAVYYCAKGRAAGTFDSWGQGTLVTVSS
VL: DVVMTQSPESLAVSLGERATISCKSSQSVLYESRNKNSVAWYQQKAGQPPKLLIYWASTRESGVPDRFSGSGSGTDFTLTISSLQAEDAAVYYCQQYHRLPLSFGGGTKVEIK

Changes read parent residue, position, new residue, counted from the first residue of the VH shown.
Values are apparent Kd, the geometric mean of the replicates that gave a signal; lower means stronger binding.
"not detected" marks a missing value. The strain was present, yet no cells mated with the target were sequenced in any replicate, which points to weak or no binding.
Empty control strains, which show no peptide, gave a signal in 15% of pairings with library AAYL49; the median was 11 µM and 95% of these signals were weaker than 680 nM. No background was subtracted.

| changes | Kd (apparent) | replicates with signal |
|---|---|---|
| S53A T58L S63A | 22 nM | 3/3 |
| S31H F59G G61F | 2.0 µM | 1/3 |
| S31V S35K G103P | 1.7 µM | 2/3 |
| D54F G55A S63Y | not detected | 0/3 |
| Y52E G61P G103A | not detected | 0/3 |
| S31F Y60T G103F | not detected | 0/3 |
| G26Q Y32R S53C | not detected | 0/3 |
| N30C Y32Q A102F | 3.9 µM | 2/3 |
| G26W V50I T58S | not detected | 0/3 |
| R100E A101D T104F | 3.6 nM | 3/3 |
| Y60G A101E A102W | not detected | 0/3 |
| N30L K65D A102F | 180 nM | 3/3 |
| G26M V50H G103C | not detected | 0/3 |
| L29D Y52R T104R | not detected | 0/3 |
| G26S V64Y S107E | 7.0 µM | 2/3 |
| G33A V50A R56L | not detected | 0/3 |
| T58W K65T A101E | 930 nM | 2/3 |
| D62S S63D A102M | 400 nM | 3/3 |
| Y32R R57E | not detected | 0/3 |
| F27A G61S | 3.6 nM | 3/3 |
| I34Y V50L T58E | 590 µM | 1/3 |
| F27P S53F D62M | not detected | 0/3 |
| S63A T104L S107F | 84 nM | 3/3 |
| G55C R57K R100M | not detected | 0/3 |
| V50P S53D G55I | not detected | 0/3 |
| F27T N30R R56T | 740 nM | 3/3 |
| S53L T58G T104V | 15 µM | 3/3 |
| S35T V64D T104A | not detected | 0/3 |
| T28R Y52V D62T | 5.7 µM | 1/3 |
| S35A S63D F105E | 58 µM | 1/3 |
| F27D D62E R100K | 57 nM | 1/3 |
| R57F F105N D106V | not detected | 0/3 |
| D54I G55K G99A | 12 µM | 1/3 |
| G26V S53M | not detected | 0/3 |
| Y60A T104V | 1.2 µM | 3/3 |
| Y32F A101S T104A | 21 µM | 1/3 |

The remaining entries, values ahead:

| Kd (apparent) | replicates with signal | changes |
|---|---|---|
| not detected | 0/3 | D62M R100T D106S |
| not detected | 0/3 | G26I K65S D106V |
| 52 µM | 1/3 | I34G G61H K65V |
| 49 µM | 3/3 | I34T I51V S107L |
| 31 µM | 1/3 | S53E G61I D106C |
| not detected | 0/3 | G55N S63D G99F |
| 160 µM | 1/3 | S53N T58Q D62L |
| not detected | 0/3 | Y52W D54V T104P |
| 29 µM | 1/3 | N30V I34S I51Q |
| 88 nM | 3/3 | T28D K65L A101Y |
| not detected | 0/3 | I51F R56M F105S |
| 2.0 µM | 1/3 | V50L D54P D62C |
| not detected | 0/3 | I51K F59E S63R |
| 22 nM | 3/3 | T58C F59E |
| 8.9 nM | 3/3 | R100V G103D |
| 2.9 µM | 1/3 | N30D Y32M T104M |
| not detected | 0/3 | D62S A101T G103M |
| not detected | 0/3 | L29M R56V S63W |
| 230 µM | 2/3 | G26E I34W S35M |
| 4.5 µM | 1/3 | D54N F105M S107V |
| not detected | 0/3 | G55A R57E A101K |
| 720 nM | 3/3 | K65Q A101K |
| 980 nM | 1/3 | G33A D62N K65R |
| 48 µM | 1/3 | G26H T28R S35K |
| 8.3 µM | 2/3 | F27I S31W D106C |
| 930 nM | 3/3 | N30V R100P |
| 1.5 µM | 3/3 | F27M D62P T104M |
| not detected | 0/3 | Y32V I34G R100W |
| 39 µM | 2/3 | Y32E I51C G99I |
| 6.9 µM | 1/3 | I34F V64T D106Q |
| 1.4 µM | 2/3 | S31V R56T S63H |
| not detected | 0/3 | Y32A S35H R57M |
| 660 nM | 1/3 | Y60A D106E S107I |
| not detected | 0/3 | Y32N G55P F59I |
| 2.4 µM | 1/3 | G26N S31C F105T |
| 1.6 µM | 1/3 | T28K R57S K65F |
| 12 µM | 3/3 | T28M S53Q G61E |

Excerpt, the first 7 entries:

{"changes": "S53A T58L S63A", "Kd (apparent)": "22 nM", "replicates with signal": "3/3"}
{"changes": "S31H F59G G61F", "Kd (apparent)": "2.0 µM", "replicates with signal": "1/3"}
{"changes": "S31V S35K G103P", "Kd (apparent)": "1.7 µM", "replicates with signal": "2/3"}
{"changes": "D54F G55A S63Y", "Kd (apparent)": "not detected", "replicates with signal": "0/3"}
{"changes": "Y52E G61P G103A", "Kd (apparent)": "not detected", "replicates with signal": "0/3"}
{"changes": "S31F Y60T G103F", "Kd (apparent)": "not detected", "replicates with signal": "0/3"}
{"changes": "G26Q Y32R S53C", "Kd (apparent)": "not detected", "replicates with signal": "0/3"}

From the AlphaSeq antibody data of Engelhart et al. 2022 (doi:10.1038/s41597-022-01779-4), copy in the FLAb collection.